Literature values, collected in US11512353B2, “Method to predict response to neuropsychiatric drugs using variation in the serotonin 7 receptor (HTR7) gene” (The Regents of the University of California, priority 2018, dated 2022).

Chains of the proteins cited; added tags and fusions are not shown.
UniProt P23975, whole entry, species assumed: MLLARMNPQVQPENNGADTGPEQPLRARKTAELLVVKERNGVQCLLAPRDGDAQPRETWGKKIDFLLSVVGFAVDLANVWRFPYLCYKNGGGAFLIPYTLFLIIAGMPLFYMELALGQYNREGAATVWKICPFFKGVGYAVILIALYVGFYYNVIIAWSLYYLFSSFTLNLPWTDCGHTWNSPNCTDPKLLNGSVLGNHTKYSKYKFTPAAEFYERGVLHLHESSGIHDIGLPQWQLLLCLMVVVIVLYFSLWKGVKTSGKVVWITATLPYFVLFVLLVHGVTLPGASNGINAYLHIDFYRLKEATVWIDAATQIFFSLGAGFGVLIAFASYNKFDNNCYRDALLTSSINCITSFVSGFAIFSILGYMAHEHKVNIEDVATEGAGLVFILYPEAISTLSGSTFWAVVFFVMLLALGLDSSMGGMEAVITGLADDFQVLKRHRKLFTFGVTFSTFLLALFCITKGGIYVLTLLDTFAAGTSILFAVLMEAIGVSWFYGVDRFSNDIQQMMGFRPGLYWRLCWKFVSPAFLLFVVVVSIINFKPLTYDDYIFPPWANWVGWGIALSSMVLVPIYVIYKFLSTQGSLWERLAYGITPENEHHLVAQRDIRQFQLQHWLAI

Biological target: norepinephrine transporter (Homo sapiens, UniProt P23975)
Conditions: cited from earlier work

CNCCC=C1c2ccccc2CCc2ccccc21 [Nortriptyline, Nortyptiline]
affinity to norepinephrine transporter relative to serotonin transporter: a hundred times higher affinity
